Results taken from patent publication US20140093548A1, “METHOD FOR DECONTAMINATING THE SKIN WITH TEXTILE COMPOSITE MATERIAL” (published 2014).

Tested on: skin on the flexor forearm (stratum corneum)
Experiment: Skin decontamination of volunteers analysed by tape stripping (UV filter absorption at 310 nm)
Conditions: 10 minutes after application, without decontamination

In the case of `CCCCC(CC)COC(=O)C=Cc1ccc(OC)cc1` (centres unmarked), the “deepest cell layer of corneocytes in which the UV filter could be detected” value is reported as at most 7 cell layers and the “topically applied UV filter detected in the first 10 tape strips” value is reported as “About 90%”.
